According to patent US6570069B1, “Nucleic acids encoding plant inhibitors of apoptosis and transgenic cells and plants expressing them” (priority 2000, dated 2003):

Legend:
[1] = system: Fas-induced apoptosis in HEK293 cells; assay: Fas-induced apoptosis in HEK293 cells (co-transfection, DAPI nuclear morphology); assay type: cell-based, human; conditions: IAP plasmid co-transfected with Fas into HEK293 cells; % apoptosis 24-36 hours later
Procedure: (§1) HEK293 and 293T cells were maintained in DMEM (Irvine Scientific) supplemented with 10% fetal bovine serum, 1 mM L-glutamine and antibiotics. 293 cells (10^6) were co-transfected using Superfect with 0.1 μg Green Fluoresence Protein (GFP) marker plasmid pEGFP (Clontech), 0.25 ug of either pcDNA3-Bax or pcDNA3-Fas, and 1.5 μg of either pcDNA3myc-SfIAP or pcDNA3myc-CpIAP. Alternatively, cells were co-transfected with 0.35 μg pcDNA3-caspase-9-Flag and 2.1 μg of either SfIAP or CpIAP. […] In some cases, lysates were prepared from transfected cells, normalized for total protein content, and analyzed by SDS-PAGE/immunoblotting as described (Deveraux, Q., et al., (1997) supra; Deveraux, Q. L., et al. (1998) supra; Roy, N. et al. (1997) supra; Takahashi, R., et al., (1998), supra.).
(§2) Baculoviral IAPs have been reported to protect mammalian cells from some apoptotic stimuli (Hawkins, C. J. et al., (1996) Proc. Natl. Acad. Sci. USA 93, 13786-13790; Hawkins, C. et al., (1998) Cell Death and Differentiation 5, 569-576; Uren, A. G. et al., (1996) Proc. Natl. Acad. Sci. USA 93, 4974-4978). Tests were performed to determine whether SfIAP is also capable of functioning as an apoptosis suppressor in a mammalian cell context. […]
(§3) Plasmids encoding various IAPs were co-transfected with Bax or Fas into 293 cells and % apoptosis was determined 24-36 hours later. […]

[2] = system: Bax-induced apoptosis in HEK293 cells; assay: Bax-induced apoptosis in HEK293 cells (co-transfection, DAPI nuclear morphology); assay type: cell-based, human; conditions: IAP plasmid co-transfected with Bax into 293 cells; % apoptosis 24-36 hours later
Procedure: as §1, §2, §3

[3] = system: DEVD-cleaving proteases in cell extracts treated with caspase-8; assay: Cell-free caspase activation induced by active caspase-8 in HEK 293 cytosolic extracts; assay type: biochemical, human; conditions: caspase-8-treated extracts
Procedure: (§4) Caspase activity was assayed by release of 7-amino-4-trifluoromethyl-coumarin (AFC) from Ac-DEVD or Ac-LEHD-containing synthetic peptides (Calbiochem) using continuous-reading instuments as described (Quan, L. T. et al., (1995) J. Biol. Chem. 270:10377-10379).
(§5) Cytosolic extracts were prepared as described (Deveraux, Q., Takahashi, R., Salvesen, G. S. & Reed, J. C. (1997) Nature 388, 300-303) using human embryonic kidney (HEK) 293 cells. Cells were washed with ice-cold buffer A (20 mM HEPES pH 7.5, 10 mM KCl, 1.5 mM MgCl2, 1 mM EDTA and 1 mM DTT), suspended in 1 volume of buffer A, incubated on ice for 20 mins, and then disrupted by 15 passages through a 26-gauge needle. Cell extracts were purified by centrifugation at 15000 g for 12 mins and supernatants were stored at −80 ° C. For initiating caspase activation, either 100 nM of purified recombinant caspase-8 or 1 μM horse heart cytochrome c (Sigma) together with 1 mM dATP was added to extracts (Deveraux, Q. L., et al., (1998) EMBO J. 17, 2215-2223).
(§6) To further explore the mechanisms by which SfIAP and CpIAP inhibit mammalian apoptosis, a cell-free system in which exogenously added active caspase-8 or cyto c induces activation of caspase-3 and similar proteases, as measured by hydrolysis of Ac-DEVD-AFC (Quan, L. T. et al., (1995) J. Biol. Chem. 270, 10377-10379) was used. […]

[4] = target: T1, pro-caspase-9 (Homo sapiens, UniProt P55211); assay: GST pull-down binding of [35S]-pro-caspase-9; set-up: species or system mammalian; conditions: GST fusion protein on glutathione-Sepharose
T1 construct: host or cells: cell-free in vitro transcription/translation
T1 sequence (P55211 1-416): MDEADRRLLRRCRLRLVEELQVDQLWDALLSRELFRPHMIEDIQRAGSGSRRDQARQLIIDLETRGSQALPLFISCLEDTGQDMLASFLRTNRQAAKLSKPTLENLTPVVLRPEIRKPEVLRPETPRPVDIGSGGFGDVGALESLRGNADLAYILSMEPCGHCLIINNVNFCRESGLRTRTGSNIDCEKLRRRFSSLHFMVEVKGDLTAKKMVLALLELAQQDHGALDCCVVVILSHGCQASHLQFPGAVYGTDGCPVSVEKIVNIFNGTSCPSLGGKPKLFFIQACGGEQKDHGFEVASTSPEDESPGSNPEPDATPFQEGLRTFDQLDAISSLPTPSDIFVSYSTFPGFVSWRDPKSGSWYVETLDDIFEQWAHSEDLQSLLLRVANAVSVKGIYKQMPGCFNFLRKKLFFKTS
Procedure: [^35S]Pro-caspase-9 was in vitro transcribed and translated in the presence of [^35S]L-methionine using TNT kit from Promega. Protein were desalted and exchanged into buffer (20 mM HEPES pH 7.5, 10 mM KCl, 1.5 mM MgCl2, 1 mM EDTA and 1 mM DTT) with Bio-spin P-6 columns (Bio-Rad). […] After incubation at 4 ° C. for 1 hour, beads were removed by centrifugation and washed twice with 0.5 ml of 50 mM Tris (pH 7.5), 150 mM NaCl, 2 mm DTT before analysis by SDS-PAGE and autoradiography.

[5] = system: caspase-3 and similar DEVD-cleaving proteases in cell extracts treated with cyto c; assay: Cell-free caspase activation induced by cyto c in HEK 293 cytosolic extracts; assay type: biochemical, human
Procedure: as §4, §5, §6

[6] = system: caspase-9-induced caspase activation and apoptosis in 293T cells; assay: Caspase-9 overexpression in 293T cells: caspase activity and apoptosis; assay type: cell-based, human; conditions: 24-36 hours after transfection
Procedure: as §1
To test this hypothesis, 293T cells were transfected with plasmids encoding pro-caspase-9 alone or in combination with SfIAP and CpIAP. Caspase activity and apoptosis were then assayed 24-36 hours later.

- binding to pro-caspase-9 (autoradiography) [4]: associated with pro-caspase-9
Substance: XIAP: human IAP, included as a positive control
- suppression of Fas-induced apoptosis [1]: did protect against Fas
- suppression of Bax-induced apoptosis [2]: inhibited Bax-induced apoptosis
- suppression of pro-caspase-3 processing (immunoblot) [3]: suppressed in both cases
- suppression of pro-caspase-3 processing (immunoblot) ([5]; cyto c-treated extracts): suppressed in both cases
- effect on hydrolysis of Ac-DEVD-AFC (caspase activity) ([5]; recombinant protein, cell extracts treated with cyto c): completely blocked the hydrolysis of Ac-DEVD-AFC
- inhibition of caspase-9-induced apoptosis [6]: inhibited caspase-9-induced apoptosis
- suppression of activation of downstream DEVD-cleaving caspases induced by overexpression of caspase-9 [6]: markedly suppressed activation of downstream DEVD-cleaving caspases
